ChEMBL document CHEMBL2331364, “A synthetic dolastatin 10 analogue suppresses microtubule dynamics, inhibits cell proliferation, and induces apoptotic cell death” (J Med Chem, 2013)

Legend:
MCF7 [1] = experiment: Induction of mitotic microtubule depolymerization in human MCF7 cells assessed as ratio of polymeric to soluble tubulin at 60 nM after 48 hrs by Western blot analysis; assay type: cell-based
MCF7 [2] = experiment: Induction of mitotic microtubule depolymerization in human MCF7 cells assessed as ratio of polymeric to soluble tubulin at 30 nM after 48 hrs by Western blot analysis; assay type: cell-based

SMILES: CC[C@H](C)[C@@H]([C@@H](CC(=O)NC[C@H]1O[C@H](C(=O)NCCc2ccccc2)[C@@H](OC)[C@@H]1OC)OC)N(C)C(=O)[C@@H](NC(=O)[C@@H](NC)C(C)C)C(C)C
- Ratio (MCF7 [1]): 0.6
- Ratio (MCF7 [2]): 0.8
